Molecular target: hERα (Homo sapiens, UniProt P03372)
Assay: CV1 transactivation assay with exogenous hERα
Type: cell-based
Settings: 1 μM ICI + 10 nM E2; data not shown

Protein sequences, listed by entry. Tags and fused reporters are not part of them.
UniProt P03372, whole entry: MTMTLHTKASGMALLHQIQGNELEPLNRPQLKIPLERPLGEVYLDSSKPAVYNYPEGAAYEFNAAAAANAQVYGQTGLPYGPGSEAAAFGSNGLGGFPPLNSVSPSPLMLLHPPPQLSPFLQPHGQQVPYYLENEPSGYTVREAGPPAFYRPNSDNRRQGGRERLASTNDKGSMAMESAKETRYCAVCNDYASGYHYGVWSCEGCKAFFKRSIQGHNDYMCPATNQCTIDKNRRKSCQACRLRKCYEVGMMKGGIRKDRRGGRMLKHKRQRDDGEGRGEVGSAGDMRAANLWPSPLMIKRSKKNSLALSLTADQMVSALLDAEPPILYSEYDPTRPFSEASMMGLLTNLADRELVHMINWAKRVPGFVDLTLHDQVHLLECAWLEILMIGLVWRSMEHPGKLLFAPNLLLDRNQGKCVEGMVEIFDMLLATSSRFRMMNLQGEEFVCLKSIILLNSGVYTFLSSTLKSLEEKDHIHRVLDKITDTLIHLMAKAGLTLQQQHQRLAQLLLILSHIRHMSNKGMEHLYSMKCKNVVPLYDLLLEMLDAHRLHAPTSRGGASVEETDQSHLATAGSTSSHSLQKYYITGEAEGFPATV

C[C@]12CC[C@@H]3c4ccc(O)cc4C[C@@H](CCCCCCCCC[S+]([O-])CCCC(F)(F)C(F)(F)F)[C@H]3[C@@H]1CC[C@@H]2O (stereo partly shown) [ICI, ICI 182,780, reference compound]
Effect of ICI on E2-elicited transcriptional activation: ablated

Reference: publication PMC2944037 (2010)
